{"sequences": {"note": "The chains behind the UniProt entries cited, without tags or fusion partners.", "UniProt P21728, whole entry": "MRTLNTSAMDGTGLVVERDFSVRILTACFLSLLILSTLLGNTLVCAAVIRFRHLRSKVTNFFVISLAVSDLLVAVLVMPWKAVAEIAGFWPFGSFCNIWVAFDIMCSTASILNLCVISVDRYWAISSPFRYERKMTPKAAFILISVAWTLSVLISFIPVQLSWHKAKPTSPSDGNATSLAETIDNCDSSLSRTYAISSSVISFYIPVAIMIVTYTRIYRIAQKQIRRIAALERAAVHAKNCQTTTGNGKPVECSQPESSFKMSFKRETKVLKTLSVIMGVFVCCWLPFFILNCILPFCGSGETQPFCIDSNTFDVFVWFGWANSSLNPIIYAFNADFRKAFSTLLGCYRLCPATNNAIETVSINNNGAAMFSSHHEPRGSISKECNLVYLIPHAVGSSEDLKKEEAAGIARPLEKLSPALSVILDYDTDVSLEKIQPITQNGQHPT"}, "source": "patent US20220267277A1", "about": "“DOPAMINE RECEPTOR D1 AGONISTS AND METHODS OF USE” (Sanford Burnham Prebys Medical Discovery Institute, priority 2019, published 2022)", "key": {"DR1": {"molecular_target": "DR1 (Homo sapiens, UniProt P21728)", "assay": "DR1 agonism EC50 (Example B-1, Table 4)", "type": "cell-based", "conditions": "read-out: DR1 EC50", "protocol": "cAMP Assay: IPF patient derived fibroblasts are plated in EMEM containing 10% FBS overnight. […] Twenty minutes prior to cell lysis the media is removed and cells are treated with “induction buffer” containing nonselective phosphodiesterase inhibitors and the indicated concentration of compound(s). Luminescence is measured on a Flexstation 3 (Molecular Devices) plate reader.\n(§1) Example B-1: Enzyme Assay of Inhibition of YAP/TAZ and DR1"}, "YAP/TAZ": {"system": "YAP/TAZ", "assay": "Inhibition of YAP/TAZ (Example B-1, Table 4)", "conditions": "read-out: YAP/TAZ IC50", "description": "as §1"}}, "data": [{"molecule": "Oc1ccc(C2CNCc3ncccc32)cc1O", "note": "(centres unmarked)", "values": [{"measurement": "EC50", "setting": "DR1", "result": "< 1000", "unit": "nM"}, {"measurement": "IC50", "setting": "YAP/TAZ", "result": "1 to 20", "unit": "µM"}]}]}
